Data from PubChem BioAssay AID1565 (Sanford-Burnham Center for Chemical Genomics, 2009).
Only a part is listed here, and it is no random draw. The source made the active and inactive calls. Cut-off read from the data, not from the text of the source: active = inhibition above about 60%; inactive = the rest.

Protein sequences, listed by entry. Tags and fused reporters are not part of them.
UniProt Q8TCT1, whole entry: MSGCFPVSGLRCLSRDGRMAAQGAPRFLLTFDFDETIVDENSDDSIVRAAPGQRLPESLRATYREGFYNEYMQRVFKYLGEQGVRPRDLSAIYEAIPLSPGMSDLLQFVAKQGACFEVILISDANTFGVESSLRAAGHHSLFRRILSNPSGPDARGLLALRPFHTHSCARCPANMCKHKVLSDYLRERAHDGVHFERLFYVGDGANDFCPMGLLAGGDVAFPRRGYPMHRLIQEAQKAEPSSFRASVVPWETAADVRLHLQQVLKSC

target: Phosphoethanolamine/phosphocholine phosphatase (Homo sapiens) (UniProt Q8TCT1); test: PubChem AID 1565; conditions: recombinant PHOSPHO1, absorbance phosphatase assay; at 13.3 µM; stronger effect = higher value

Compound	inhibition
N#Cc1ccc(C(=O)NCC2(N3CCCCC3)CCCCC2)cc1	inactive: 35.9%
CC(C)(C)OC(=O)N1CCC(N(C(=O)c2ccccc2)c2ccc(Cl)cc2)CC1	inactive: 29.2%
CN(C)C1(CNC(=O)c2cccc(C#N)c2)CCCCC1	inactive: 44.2%
c1ccc(CN2CCC(Nc3ccccc3)CC2)cc1	inactive: -6.8%
CCCN1CCC(Nc2cc(OC)cc(OC)c2)CC1	inactive: 23.9%
COc1ccc(C(=O)NCC2(N3CCOCC3)CCCCC2)cc1OC	inactive: 9.1%
O=C(OC1CN2CCC1CC2)C1c2ccccc2C=Cc2ccccc21 (stereo unspecified)	inactive: 30.8%
CCOC(=O)N1CCC(Nc2ccc(C)cc2)CC1	inactive: 23.9%
N/C(=N\O)c1c(N)no[n+]1[O-]	inactive: 6.8%
CC(C)(C)OC(=O)N1CCC(Nc2ccccc2)CC1	inactive: 11.4%
O=C(O)C1(Nc2ccccc2)CCN(Cc2ccccc2)CC1	inactive: 39.9%
CCCOc1ccc(C(=O)NCC2(N(C)C)CCCCC2)cc1	inactive: 19.7%
CCOc1ncccc1C(=O)NCC1(N2CCOCC2)CCCCC1	inactive: -38.9%
CN1CCC(Nc2ccc(F)c(Cl)c2)CC1	inactive: -1.3%
CCCOc1ccc(C)cc1CN(CCCl)CCCl	inactive: 36.8%
COc1cc(OC)cc(C(=O)NCC2(N3CCOCC3)CCCCC2)c1	inactive: 24.4%
COc1cccc(C(=O)N(c2cc(C)cc(C)c2)C2CCN(C(=O)OC(C)(C)C)CC2)c1	inactive: 11.4%
CCC(CO)(C(=O)OC1CN2CCC1CC2)c1ccccc1 (stereo unspecified)	inactive: -0.8%
Fc1ccccc1NC1CCN(Cc2ccccc2)CC1	inactive: 9.2%
COc1cc(OC)cc(C(=O)NCC2(N3CCCCC3)CCCCC2)c1	inactive: 14.2%
CN(C)c1ccc(C(=O)NCC2(N3CCCCC3)CCCCC2)cc1	inactive: 8.4%
CCN1CCC(Nc2cccc(F)c2)CC1	inactive: 4.7%
O=C(NCC1(N2CCCCC2)CCCCC1)c1ccc(F)cc1	inactive: 40.9%
COc1ccc(NC2CCN(CCc3ccccc3)CC2)c(OC)c1	inactive: 16%
CCOC(=O)N1CCC(Nc2ccc(F)cc2)CC1	inactive: 25.3%
CCOc1ccc(C)cc1CN(CCCl)CCCl	inactive: 20.3%

Compound	inhibition
COc1cc(C(=O)NCC2(N(C)C)CCCCC2)ccc1OC(F)F	inactive: 33%
Cc1ccc(OCC(C)C)c(CN(CCCl)CCCl)c1	inactive: 36.8%
CSc1ccccc1C(=O)NCC1(N2CCCCC2)CCCCC1	inactive: 31%
COc1ccc(C(=O)NCC2(N3CCCCC3)CCCCC2)cc1	inactive: 24%
CC(C)(C)OC(=O)N1CCC(N(C(=O)c2ccccc2)c2ccc(F)cc2)CC1	inactive: 2.8%
COc1ccc(C(=O)NCC2(N3CCCCC3)CCCCC2)c(OC)c1OC	inactive: 34.2%
O=C(NCC1(N2CCCCC2)CCCCC1)c1ccc(=O)[nH]c1	active: 62.4%
O=C(OC1CN2CCC1CC2)C1c2ccccc2Oc2ccccc21 (stereo unspecified)	inactive: 1%
N#CC1(Nc2ccccc2)CCN(Cc2ccccc2)CC1	inactive: -14%
CCOC(=O)N1CCC(Nc2ccc(OC)cc2)CC1	inactive: -19.1%
Cc1cc(C)cc(N(C(=O)c2ccccc2)C2CCN(C(=O)OC(C)(C)C)CC2)c1	inactive: 41.9%
O=C(NCC1(N2CCOCC2)CCCCC1)c1cc2ccccc2o1	inactive: -42.5%
COc1cc(OC)c(C(=O)NCC2(N(C)C)CCCCC2)cc1OC	inactive: 41.5%
CC(C)c1ccc(NC2CCN(C(=O)OC(C)(C)C)CC2)cc1	inactive: 23.6%
COc1ccc(CN(CCCl)CCCl)cc1Cl	inactive: 36.6%
CN(C)c1cccc(C(=O)NCC2(N3CCCCC3)CCCCC2)c1	inactive: 28.5%
CCCOc1ccc(C(=O)NCC2(N(C)C)CCCCC2)cc1OC	inactive: 33%
N#CC1(Nc2ccccc2)CCN(CCc2ccccc2)CC1	inactive: 13.7%
O=C(NCC1(N2CCCCC2)CCCCC1)c1cccc([N+](=O)[O-])c1	inactive: -61.5%
O=C(NCC1(N2CCCCC2)CCCCC1)c1ccc(OC(F)F)cc1	inactive: 23.9%
COc1cc(C(=O)NCC2(N3CCCCC3)CCCCC2)ccc1OC(F)F	inactive: 2.2%
O=C(NCC1(N2CCOCC2)CCCCC1)c1cc(=O)[nH]c2ccccc12	inactive: -9.3%
CN1CCN(CCOC(=O)C(O)(c2ccccc2)c2ccccc2)CC1	inactive: -0.5%
COc1ccc(NC2CCN(C(=O)OC(C)(C)C)CC2)cc1	inactive: -74.1%
O=C(NCC1(N2CCCCC2)CCCCC1)c1cccc(C(F)(F)F)c1	inactive: 43.3%
